Measurements: patent US20240043489A1, “Cytokine Prodrugs Comprising a Cleavable Linker” (Trutino Biosciences Inc., priority 2020, published 2024)

System: MC38 tumor
Assay: Intra-tumoral injection in syngeneic MC38 colorectal cancer model
Type: in vivo, mice
Conditions: daily intra-tumoral injection, 10 injections, Construct A 70ug/day, r hIL2 5 ug/day

In the case of “r hIL2: recombinant human IL-2, comparison arm dosed at 5 ug/day intra-tumorally [reference compound]”, the anti-tumor activity is reported as “no tumor regression” and the anti-tumor activity (listed as human IL-2) is reported as “adversely affected tumor control relative to vehicle”.
